Measurements: published antibiotic growth screens (doi:10.1038/s41589-023-01349-8)
The other results are listed elsewhere or left out.

These compounds were tested on A. baumannii ATCC 17978 (assay: relative growth (fraction of control); higher = less inhibition). Conditions: 50 µM.
Compound `CO[C@H]1CN(C)C(=O)c2ccc(NS(C)(=O)=O)cc2OC[C@H](C)N(C(=O)C2CCOCC2)C[C@H]1C` has a relative growth of 1.06. `COc1ccccc1OCCNCC(O)COc1cccc2[nH]c3ccccc3c12` (stereo unspecified) was tested, and the relative growth was 0.834. `COc1cc(O)c2c(=O)c3cc(OC)c(OC)cc3oc2c1` was tested, and the relative growth was 0.901. Compound `CC(C)c1nc(CN(C)C(=O)N[C@H](C(=O)N[C@@H](Cc2ccccc2)C[C@H](O)[C@H](Cc2ccccc2)NC(=O)OCc2cncs2)C(C)C)cs1` has a relative growth of 0.941. With `O=C(C[C@@H]1C=C[C@@H](NC(=O)Cc2ccccn2)[C@H](CO)O1)NCCCN1CCOCC1` the relative growth was 1.01. In the case of `CN(C)CCCNC(=O)C1CCNCC1`, the relative growth is reported as 1. `CO[C@H]1O[C@H](CO)[C@@H](OC(=O)c2ccc(Br)cc2)[C@@H]2OC(=O)[C@@H](Cc3ccccc3)C/C=C/C[C@H](Cc3ccccc3)C(=O)O[C@@H]12` showed a relative growth of 1.11. With `CO[C@@H]1CN(C)C(=O)c2ccc(NS(=O)(=O)CC(F)(F)F)cc2OC[C@H](C)N(Cc2nccs2)C[C@@H]1C` the relative growth was 0.964. In the case of `CN(C)CCCNC(=O)C[C@H]1CC[C@H](NS(=O)(=O)c2ccccc2)[C@@H](CO)O1`, the relative growth is reported as 1.11. For `C=CC[C@H](CC(=O)N(CCO)Cc1ccccc1)C(=O)NC[C@@H](OC(=O)[C@@H](CC=C)Cc1ccc(F)cc1)c1ccccc1`, the relative growth was 1.29. `O=C(C[C@H]1CC[C@H]2[C@@H](COC[C@@H](O)CN2Cc2cccc(C(F)(F)F)c2)O1)NCCc1ccncc1` was tested, and the relative growth was 0.853. `CCNc1nc(NCC)nc(OCC#N)n1` gave a relative growth of 1.07. With `Cn1ncc2c(NN3C(=O)CCC3=O)ncnc21` the relative growth was 0.969. In the case of `O=C(CN1CCOCC1)N[C@@H]1CC[C@H](CCn2cc(C3CC3)nn2)O[C@@H]1CO`, the relative growth is reported as 0.977. `O=C(C[C@@H]1CC[C@H](NS(=O)(=O)c2ccc(F)cc2)[C@H](CO)O1)NCc1ccc(Cl)c(Cl)c1` showed a relative growth of 0.859. With `CC1CCc2cc(F)cc3c(=O)c(C(=O)O)cn1c23` (stereo unspecified) the relative growth was 0.146. In the case of `COc1cccc(S(=O)(=O)N2C[C@H](O)COC[C@H]3O[C@H](CC(=O)N4CCN(C)CC4)CC[C@@H]32)c1`, the relative growth is reported as 0.89. `CC(=O)O[C@H]1C[C@](C)(O)C2=C[C@@H](O)[C@@](C)(O)[C@@H]2[C@H]2OC(=O)[C@@H](C)[C@@H]21` showed a relative growth of 1.07. `O=C(C[C@@H]1C=C[C@@H](NC(=O)C2CCC2)[C@H](CO)O1)NCCCN1CCOCC1` gave a relative growth of 0.892. `O=C(C[C@H]1CC[C@H]2[C@@H](COC[C@H](O)CN2S(=O)(=O)c2ccc(Cl)cc2)O1)N[C@H]1CCN(Cc2ccccc2)C1` was tested, and the relative growth was 0.949. Compound `c1ccc([C@@H]2CCC[C@H](c3ccccc3)S2)cc1` has a relative growth of 0.984. `C[C@H]1CN([C@@H](C)CO)S(=O)(=O)c2ccc(C#Cc3ccc(F)cc3)cc2O[C@H]1CN(C)C(=O)c1ccccn1` was tested, and the relative growth was 0.713. Work on `C[C@H]1[C@H]([Si](C)(C)F)[C@@H](CC(=O)N(CCO)Cc2ccccc2)O[C@]12C(=O)N(c1ccccc1)c1ccccc12` yielded a relative growth of 0.846. `CCCOc1ccc2nc(NC(=O)OC)[nH]c2c1` showed a relative growth of 1.22. With `C[C@]12C(=O)N(CCC(=O)O)C(=O)[C@H]1[C@@H]1C=C[C@@H]2C1` the relative growth was 0.903. `Cn1cnc(S(=O)(=O)N2C[C@H](O)COC[C@@H]3O[C@@H](CC(=O)NC4CCCC4)CC[C@H]32)c1` was tested, and the relative growth was 1.01. For `CCOC(=O)C1=C(C)NC(C)=C(C(=O)OC)C1c1cccc([N+](=O)[O-])c1` (stereo unspecified), the relative growth was 1.09. For `Cc1onc(-c2ccccc2Cl)c1C(=O)N[C@@H]1C(=O)N2[C@@H]1SC(C)(C)[C@@H]2C(=O)[O-].[Na+]`, the relative growth was 1.04. With `CN(C)Cc1cn(CC[C@@H]2CC[C@@H](NC(=O)Cc3cccnc3)[C@H](CO)O2)nn1` the relative growth was 0.946. With `O=C(O)[C@H]1/C(=C/CO)O[C@@H]2CC(=O)N21.[LiH]` the relative growth was 0.163. With `CCN(CC)CCCNC(=O)C1CCNCC1` the relative growth was 1.12. With `COc1ccc(/C=C2/NC(=O)NC2=O)cc1` the relative growth was 0.864. For `CCCCCCCCCCCCCCCCC(C(=O)O)C(O)(CC(=O)O)C(=O)O` (stereo unspecified), the relative growth was 0.945. `Cc1ccc(S(=O)(=O)N(C)C[C@@H]2Oc3cc(C#Cc4ccccc4)ccc3S(=O)(=O)N([C@@H](C)CO)C[C@H]2C)cc1` gave a relative growth of 1.07. In the case of `COCC(=O)N[C@@H]1C=C[C@@H](CC(=O)N2CCCCC2)O[C@@H]1CO`, the relative growth is reported as 1.09. `CC(C)CC#Cc1cnc2c(c1)C(=O)N([C@H](C)CO)C[C@H](C)[C@H](CN(C)S(=O)(=O)c1cccs1)O2` was tested, and the relative growth was 1.04. `CCC(=O)N[C@H]1CC[C@@H](CC(=O)OC)O[C@H]1CO` gave a relative growth of 1.04. Work on `COC(=O)C[C@H]1NCCNC1=O` yielded a relative growth of 0.994. For `CCNc1nc(OCCO)nc(N(C)C)n1`, the relative growth was 1.1. `CCC(=O)O[C@]1(C(=O)SCF)[C@H](C)CC2C3CC(F)C4=CC(=O)C=C[C@]4(C)C3(F)[C@@H](O)C[C@@]21C` (stereo partly specified) was tested, and the relative growth was 1.16. In the case of `COCC#Cc1ccc2c(c1)O[C@H](CN(C)S(=O)(=O)c1cccc(F)c1)[C@@H](C)CN([C@@H](C)CO)S2(=O)=O`, the relative growth is reported as 0.874. Compound `CC(=O)N1C[C@@H](O)C[C@H]1C(=O)O` has a relative growth of 1.11. For `O=C(C[C@@H]1CC[C@@H]2[C@H](COC[C@H](O)CN2S(=O)(=O)c2ccccc2)O1)NCCN1CCCCC1`, the relative growth was 0.984. `C[C@H]1CN([C@@H](C)CO)C(=O)Cc2cc(NC(=O)Nc3cc(Cl)cc(Cl)c3)ccc2O[C@H]1CN(C)S(=O)(=O)c1ccc(Cl)cc1` was tested, and the relative growth was 0.898. With `CCn1cc(C(=O)O)c(=O)c2cc(F)c(N3CCNCC3)cc21` the relative growth was 0.159. `COC(=O)c1c(C)cc(OC(=O)c2c(C)cc(O)c(CO)c2O)c(C)c1O` gave a relative growth of 0.945. `O=C(C[C@@H]1CC=CC[C@@H](Cc2ccc(F)cc2)C(=O)OC[C@H](Cc2c[nH]c3ccccc23)NC1=O)NCCO` gave a relative growth of 0.881. `O=C(NO)c1cccc(C(=O)N/N=C/[C@H](O)[C@@H](O)[C@H](O)[C@H](O)CO[C@H]2O[C@H](CO)[C@H](O)[C@H](O)[C@H]2O)c1` showed a relative growth of 0.84. In the case of `O=C(C[C@@H]1C=C[C@@H](NC(=O)CN2CCOCC2)[C@H](CO)O1)NC1CCCCC1`, the relative growth is reported as 1.06. `Cc1ccc(N2C(=O)c3ccccc3[C@@H](C(=O)NCCN3CCOCC3)[C@@H]2c2ccc(CO)cc2)nc1` was tested, and the relative growth was 1.18. `CO[C@H]1CN(C)C(=O)c2ccc(NC(C)=O)cc2OC[C@@H](C)N(S(=O)(=O)c2cn(C)cn2)C[C@@H]1C` was tested, and the relative growth was 1.01. `O=c1c(O)c(-c2ccc(O)c(O)c2)oc2c(O[C@@H]3O[C@H](CO)[C@@H](O)[C@H](O)[C@H]3O)c(O)cc(O)c12` showed a relative growth of 0.985. `COCCNC(=O)C[C@@H]1CC[C@H]2[C@@H](COC[C@@H](O)CN2S(=O)(=O)c2ccccc2C)O1` was tested, and the relative growth was 1.2. In the case of `COc1cc(N)ccc1N1CCCS1(=O)=O`, the relative growth is reported as 0.962. Compound `COCCCNC(=O)[C@@]1(Cc2ccccc2I)c2ccccc2C(=O)N(C2CCCCC2)[C@H]1c1ccc(CO)cc1` has a relative growth of 0.845. Compound `COc1cc2c(cc1OC)CN(C(=O)[C@H]1[C@@H]3C(=O)O[C@@H](c4ccccc4)[C@@H](c4ccccc4)N3[C@@H](c3ccc(O)cc3)[C@]13C(=O)Nc1ccccc13)CC2` has a relative growth of 0.9. Compound `Cc1ccc(-c2c[nH]c(=S)[nH]2)cc1` has a relative growth of 0.968. Work on `O=C(O)Cn1c(=O)oc2ccccc21` yielded a relative growth of 0.953. Work on `C=CCOC(=O)[C@H]1[C@@H]2C(=O)O[C@@H](c3ccccc3)[C@@H](c3ccccc3)N2[C@@H](c2ccc(OCCOC(=O)[C@@H]3C[C@@H]4C(=O)N[C@@H](CCCC[N+](C)(C)C)C(=O)N4[C@@H]3c3cccc(OCCO)c3)cc2)[C@]12C(=O)Nc1ccc(I)cc12` yielded a relative growth of 1.64. With `CN(C[C@@H](O)CN)S(=O)(=O)c1ccccc1` the relative growth was 0.994. `O=C(C[C@@H]1CC[C@@H]2[C@H](COC[C@H](O)CN2S(=O)(=O)c2ccc(F)cc2)O1)N[C@H]1CCN(Cc2ccccc2)C1` gave a relative growth of 1.1. With `COc1ccc(NC(=O)O[C@H]2[C@H](OC(=O)Nc3ccccc3-c3ccccc3)[C@@H](OC(=O)Nc3ccccc3-c3ccccc3)[C@@H](OC)O[C@@H]2COC(=O)NCCCCCC(=O)NO)cc1` the relative growth was 0.857. `NCc1nncn1-c1ccccc1` showed a relative growth of 1.03. Compound `NC[C@H]1CC[C@H](C(=O)N2CCC(c3ccncc3)CC2)CC1` has a relative growth of 1.08. `O=C(NCC[C@@H]1CC[C@@H](NS(=O)(=O)c2cccc(F)c2)[C@@H](CO)O1)C1CC1` showed a relative growth of 1.2. With `Cc1cc(C(C)(C)C)c(O)c(C)c1CC1=NCCN1.Cl` the relative growth was 1.02. `C=C1[C@H]2CC[C@@]3(C)[C@H](c4ccoc4)OC(=O)C[C@]13O[C@H]1C[C@H](O)C(C)(C)[C@H](CC(=O)OC)[C@]12C` [METHYL 3-DEOXY-3beta-HYDROXYANGOLENSATE] was tested, and the relative growth was 1.03. Compound `C[C@H](O)C#Cc1ccc2c(c1)O[C@@H](CN(C)C(=O)c1ccncc1)[C@H](C)CN([C@@H](C)CO)S2(=O)=O` has a relative growth of 1.04. Work on `CN(C)Cc1cn(CC[C@@H]2CC[C@H](NS(=O)(=O)c3ccccc3)[C@H](CO)O2)nn1` yielded a relative growth of 1.03. Compound `CN1C(=O)c2cc(NC(=O)C3CCCC3)ccc2OC[C@@H]2O[C@@H](CC(=O)NCCc3ccncc3)CC[C@H]21` has a relative growth of 1.05. `NS(=O)(=O)c1cc2c(cc1C(F)(F)F)NC(Cc1ccccc1)NS2(=O)=O` (stereo unspecified) gave a relative growth of 1. With `COc1cccc(NC(=O)N[C@H]2CC[C@@H](CC(=O)N3CCOCC3)O[C@@H]2CO)c1` the relative growth was 0.961. For `COc1ccc([Si](C)(C)[C@@H]2[C@@H](CCn3cc([C@H](O)c4ccccc4)nn3)O[C@]3(C(=O)N(Cc4ccc(N5C(=O)c6cccc7cccc5c67)cc4)c4ccccc43)[C@H]2C)cc1`, the relative growth was 1.14. Work on `COCC#Cc1ccc2c(c1)O[C@@H](CN(C)S(=O)(=O)c1cccc(F)c1)[C@H](C)CN([C@H](C)CO)S2(=O)=O` yielded a relative growth of 0.902. Compound `CCCCC(=O)O[C@]1(C(=O)CO)[C@@H](C)CC2C3CCC4=CC(=O)C=C[C@]4(C)[C@@]3(F)C(O)C[C@@]21C` (stereo partly specified) has a relative growth of 0.907. For `O=C(c1ccccc1F)N1c2ccccc2Sc2ccccc21`, the relative growth was 1.05.
